Reference: ChEMBL document CHEMBL6127039, “An update on small molecule compounds targeting synthetic lethality for cancer therapy” (Eur J Med Chem, 2024)

Amino acid sequences for entries named in this document (tags omitted). A change or cut given only in a name is not applied to a line headed by its entry.
UniProt P54132: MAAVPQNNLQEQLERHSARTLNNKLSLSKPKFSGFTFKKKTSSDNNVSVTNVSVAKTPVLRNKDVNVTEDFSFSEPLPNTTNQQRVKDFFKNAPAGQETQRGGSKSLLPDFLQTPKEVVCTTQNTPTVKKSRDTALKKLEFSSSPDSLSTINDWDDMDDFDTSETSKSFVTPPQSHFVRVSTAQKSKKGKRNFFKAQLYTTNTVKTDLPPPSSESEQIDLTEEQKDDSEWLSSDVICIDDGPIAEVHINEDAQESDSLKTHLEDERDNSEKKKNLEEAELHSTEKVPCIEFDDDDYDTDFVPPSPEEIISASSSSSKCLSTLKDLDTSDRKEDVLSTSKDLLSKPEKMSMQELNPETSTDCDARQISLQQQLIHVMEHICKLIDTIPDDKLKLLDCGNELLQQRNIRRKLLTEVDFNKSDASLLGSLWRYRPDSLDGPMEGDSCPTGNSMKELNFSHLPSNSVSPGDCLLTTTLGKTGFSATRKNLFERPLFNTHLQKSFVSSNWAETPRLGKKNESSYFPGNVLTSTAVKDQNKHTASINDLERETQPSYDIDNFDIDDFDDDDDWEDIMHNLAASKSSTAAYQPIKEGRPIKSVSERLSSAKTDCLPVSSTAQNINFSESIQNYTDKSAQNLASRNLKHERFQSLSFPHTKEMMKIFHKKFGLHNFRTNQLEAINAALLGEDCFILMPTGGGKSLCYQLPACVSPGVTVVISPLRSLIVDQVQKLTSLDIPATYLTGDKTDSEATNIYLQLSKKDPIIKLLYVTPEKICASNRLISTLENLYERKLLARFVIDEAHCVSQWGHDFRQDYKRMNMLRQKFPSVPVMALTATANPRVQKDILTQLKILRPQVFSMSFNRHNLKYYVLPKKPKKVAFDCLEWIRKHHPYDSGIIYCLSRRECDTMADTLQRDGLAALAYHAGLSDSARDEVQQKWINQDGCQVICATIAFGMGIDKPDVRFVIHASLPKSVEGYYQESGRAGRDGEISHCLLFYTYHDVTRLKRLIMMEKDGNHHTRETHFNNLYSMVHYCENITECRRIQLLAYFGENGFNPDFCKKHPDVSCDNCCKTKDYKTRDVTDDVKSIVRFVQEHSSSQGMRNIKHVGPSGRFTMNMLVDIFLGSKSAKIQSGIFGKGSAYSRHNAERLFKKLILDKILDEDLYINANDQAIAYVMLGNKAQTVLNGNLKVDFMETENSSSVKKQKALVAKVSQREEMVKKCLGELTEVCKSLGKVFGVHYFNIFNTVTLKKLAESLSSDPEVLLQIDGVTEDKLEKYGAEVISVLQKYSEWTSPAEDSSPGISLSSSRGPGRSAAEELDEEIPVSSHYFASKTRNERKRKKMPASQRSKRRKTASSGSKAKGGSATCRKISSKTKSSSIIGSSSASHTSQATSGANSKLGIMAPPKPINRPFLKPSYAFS

Target: RecQ-like DNA helicase BLM (Homo sapiens, UniProt P54132)
Test: Inhibition of BLM (unknown origin)

IC50: 5 µM
SMILES: O=C(Nc1ccc(F)c(C(F)(F)F)c1)Nc1nnc(-c2ccncc2)s1
